The source of these data is patent US11040107B2, “Dosing regimens and related compositions and methods” (Apellis Pharmaceuticals, Inc., priority 2017, dated 2021).

Data set [1] relates to PNH RBCs. Nature of the data set: Modified Ham's assay, comparison with Soliris. The class given is cell-based, human. The protocol:
Flow cytometry was performed after antibody staining using antibodies against CD59 and C3d. In this figure, quadrant 1 (Q1) and quadrant 3 (Q3) represent Type III cells. Quadrant 2 (Q2) and quadrant 4 (Q4) represent Types I and II cells. Q1 and Q2 represent cells with a significant and abnormally high amount of C3 activation product (e.g., C3d) deposition. Q3 and Q4 represent cells without significant C3d deposition or somewhat elevated level (right portion of Q4) but less so than Q2 cells.

The test system of data set [2] is rabbit erythrocytes. The conditions noted are these: serum from PNH patients; Hillmen 2004; cited from earlier work.

For the substance “Eculizumab: humanized anti-C5 monoclonal antibody [reference compound]”, the “deposition of C3d on PNH RBCs” value in data set [1] was “significant deposition of C3 activation products”. In addition, in data set [2], the “inhibition of ex vivo serum-induced hemolysis shown to be of considerable benefit in PNH” value was 80%.
